Sampled rows, rich in hits. Any-hit rate of the full collection: about 0.43%.
GIV Gai3 FP – inhibitors of GIV peptide binding to Galpha-i3, primary screen, biochemical, fluorescence polarization, FITC-GIV GBA peptide, rat Galphai3; 90 min; stronger effect = lower value; scaled: aluminum fluoride 0%, vehicle 100%; percent of control (FP), % (test concentration not listed); 0.42% of 210,000 active; AID 1224905, 2016;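 active = replicate mean at 85% of control or lower, very high polarization wells dropped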;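 also: wells of about 15 µL received 100 nL stock; the first replicate is given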
HCMV NEC inh – cytomegalovirus nuclear egress complex inhibition; HTRF UL50-UL53 interaction, normalized percent inhibition; inhibition, % (no concentration beside the values); 190,000 tested, 0.15% active; in the data active = inhibition above about 27%, passing the limit was not always enough
Numbers without * were called inactive; x = no result.

SMILES | GIV Gai3 FP | HCMV NEC inh
O=C(CSc1ccc2c3c(cccc13)C(=O)c1ccccc1-2)Nc1ccccc1 | 99 | x
COCCCNC(=O)CSc1ccc2c3c(cccc13)C(=O)c1ccccc1-2 | -73* | x
CCOC(=O)C1=C(O)/C(=C/c2ccc(OC)c(OC)c2)SC1=Nc1ccc(Cl)cc1 | 107 | x
CC(C)/C=C1\CC/C(=C\c2ccc(N(C)C)cc2)C1=O | -75* | x
CN(C)c1ccc(/C=C2/CCC/C(=C\c3ccc(N(C)C)cc3)C2=O)cc1 | 188 | -15
C=C1SC(Nc2ccc(OC)cc2OC)=NC1(C)C | 102 | x
CN(C)c1ccc(/C=C2/SC(=S)N(CC(=O)O)C2=O)cc1 | -61* | -20
O=C(O)CN1C(=O)/C(=C\c2ccc(O)cc2)SC1=S | 196 | -124
O/N=C/C(=N/O)c1ccc(Br)cc1 | 99 | -40
CCOC(=O)N1CCN(S(=O)(=O)c2ccc(F)c(C(=O)Nc3ccc(Br)cc3)c2)CC1 | 106 | x
O=[N+]([O-])c1cccc(-c2nc(-c3ccc(Br)cc3)c(-c3ccc(Br)cc3)[nH]2)c1 | 106 | x
N#Cc1c(N2CCCC(C(=O)O)C2)nc(N)c2c(N)nc3c(c12)CC(=O)N3C1CCCC1 (configuration not stated) | x | -18
CN(CCO)c1nc(N)c2c(N)nc3c(c2c1C#N)CC(=O)N3C1CCCC1 | x | 101*
CCCn1c(=O)c2c(nc3n2CCN3c2ccc(OC)cc2)n(C)c1=O | 101 | 4
CNc1cccc2cccc(OC)c12 | x | -43
COc1ccc2cccc3c2c1C=CC3=O | -89* | -75
Clc1ccc(-c2csnn2)cc1Cl | 102 | -13
CC(=O)Nc1ccc2nc(NC(=O)c3ccc(F)cc3)sc2c1 | x | -2
CCC(NC(=O)C(C)NC)C(=O)N1CC(O)CC1Cc1c(-c2[nH]c3cc(F)ccc3c2CC2CC(O)CN2C(=O)C(CC)NC(=O)C(C)NC)[nH]c2cc(F)ccc12 (configuration not stated) | x | -19
CC(=O)NCCNC(=O)CCc1nc2sc3c(c2c(=O)[nH]1)CCCCC3 | 107 | -27
C=CCN1C(=O)NC(=O)/C(=C\c2cn(Cc3ccccc3)c3ccccc23)C1=O | 21* | x
C=CCN1C(=O)NC(=O)/C(=C/c2cccc(OCc3ccccc3Cl)c2)C1=O | 114 | 73*
CN1C(=O)/C(=C/c2cn(Cc3ccccc3)c3ccccc23)c2ccccc21 | 104 | x
C=CCN1C(=O)NC(=O)/C(=C/c2ccc(OCc3ccccc3F)c(OCC)c2)C1=O | 104 | -13
CN1C(=O)/C(=C/c2cn(CC(=O)NCc3ccco3)c3ccccc23)C(=O)NC1=S | 105 | 5

Two entries drawn at random from those above, as already listed:
SMILES | GIV Gai3 FP | HCMV NEC inh
Clc1ccc(-c2csnn2)cc1Cl | 102 | -13
C=C1SC(Nc2ccc(OC)cc2OC)=NC1(C)C | 102 | x

Next compounds:
SMILES | GIV Gai3 FP | HCMV NEC inh
C=CCN1C(=O)NC(=O)/C(=C/c2ccccc2OCc2ccc(Cl)cc2)C1=O | 117 | 82*
C=CCN1C(=O)NC(=O)/C(=C/c2ccc(OCc3ccc(Cl)cc3)c(OC)c2)C1=O | 109 | -27
O=C(Cn1cc(/C=C2\C(=O)NC(=O)N(Cc3ccccc3)C2=O)c2ccccc21)NCc1ccco1 | -35* | 0
COc1c(C)cc(S(=O)(=O)Nc2ccc(Cl)cn2)c(C)c1C | 98 | 19
CSc1ccc(CCNC(=O)c2oc3cc4sc(N(C)C)nc4cc3c2C)cc1 | 100 | x
O=c1ccc(-c2ccc(S(=O)(=O)N3CCCC3)o2)n[nH]1 | 105 | -100
COc1cccc2c1N=C1OC=CC1C2OC (configuration not stated) | x | 54*
CCOC(=O)CC(=O)CSc1nc(C)c2cc(C)c(C)cc2n1 | 98 | -30
CC(C)(C)C(=O)Nc1ccc2c(c1)C(=O)C(=O)c1ccccc1-2 | x | 122*
CC(C)(C)C(=O)Nc1ccc(-c2nc3ccccc3s2)c(O)c1 | x | -13
O=C(OCC(=O)N1CCN(c2ccccc2)CC1)c1cccc(F)c1 | x | -23
CN1C(=O)/C(=C/C=C2/CCCN2C)N(C)C1=S | 183 | -188
C=CCN1C(=O)/C(=C\C=C2/CCCN2C)SC1=S | -61* | -78
Cn1cc2c(n1)-c1cc(Cl)ccc1SC2 | 113 | -12
CCOC(=O)/C(C#N)=C/c1ccccc1 | 103 | -76
CCOC(=O)/C(C#N)=C\c1ccc(N2CCOCC2)cc1 | -45* | -50
Cc1ccc(-c2c(C#N)c(SCC(=O)c3ccccc3)nc3c2CCCC3)o1 | 112 | x
CCN(CC)CCNC(=O)CC1CCN(S(=O)(=O)c2cccs2)CC1 | 106 | x
COC(=O)CC1SC(=O)NC1=Nc1ccc(C)cc1 (configuration not stated) | x | 0
COC(=O)CC1SC(=O)NC1=S (configuration not stated) | -68* | -72
CCN1C(=O)/C(=C\c2ccc(-c3ccc(Cl)c(C(=O)O)c3)o2)SC1=S | -15* | -391
O=C(O)CN1C(=O)/C(=C\c2ccc(-c3ccc(Cl)c([N+](=O)[O-])c3)o2)SC1=S | 111 | -44
OC(c1ccc(Cl)cc1)C(O)c1nc2ccccc2[nH]1 (configuration not stated) | x | -20
OCC(O)C(O)C(O)C(O)c1nc2ccccc2[nH]1 (configuration not stated) | x | 37*
CC(C(=O)NCC1CCCO1)n1c2ccccc2c2cnn(C)c(=O)c21 (configuration not stated) | 103 | 1

Compound profiles, as listed above.
COc1cccc2c1N=C1OC=CC1C2OC (configuration not stated) in the list: GIV Gai3 FP = x; HCMV NEC inh = 54*
C=CCN1C(=O)NC(=O)/C(=C/c2ccc(OCc3ccc(Cl)cc3)c(OC)c2)C1=O in the list: GIV Gai3 FP = 109; HCMV NEC inh = -27
CCN(CC)CCNC(=O)CC1CCN(S(=O)(=O)c2cccs2)CC1 in the list: GIV Gai3 FP = 106; HCMV NEC inh = x

Additional entries:
SMILES | GIV Gai3 FP | HCMV NEC inh
OCC[n+]1ccc(/C=C/c2c[nH]c3ccccc23)cc1 | -18* | x
Cc1ccccc1/C=C/c1c[nH]c2ccccc12 | 101 | -15
COc1ccccc1CNC(=O)CO/N=C/c1cccs1 | x | -34
O=C1Cc2ccccc2C(=O)N1 | x | 100*
O=C1CC(=O)Nc2ccccc2N1 | 100 | -18
CCOC(=O)c1[nH]c(CSc2cccc[n+]2[O-])c(C(=O)OCC)c1C | x | 62*
CCOC(=O)c1[nH]c(CSc2nnc3ccccn23)c(C(=O)OCC)c1C | x | -22
Cc1ccc2c(c1)C(C)CC(C)(C)N2C(=O)Nc1ccccc1 (configuration not stated) | 106 | x
O=c1c(-c2ccc(Oc3ccccc3)cc2)[n+]([O-])c2ccccc2n1O | 116 | -64
N#Cc1c(=O)n(O)c2ccccc2[n+]1[O-] | -33* | -132
Cc1[nH]cnc1CN1CCc2c(c3ccccc3n2C)C1=O | x | 90*
Cc1[nH]cnc1CN1CCCCCCC1 | 101 | -4
CC(C)C1=NCCc2cc(O)c(O)cc21 | 106 | x
O=C(O)C(Cc1ccccc1)N=Cc1c(O)c2ccccc2oc1=O (configuration not stated) | 99 | -18
O=C(O)C(Cc1ccc(O)cc1)N=Cc1cccc2ccccc12 (configuration not stated) | x | 95*
CCCNC(=O)C1=C(C)C(=O)OC12CCCCC2 | 100 | x
CCC(C)OC(=O)C1=C(C)NC2(O)c3ccccc3C(=O)C12O (configuration not stated) | 107 | x
CC1=C(C(=O)OC(C)C)C2(O)C(=O)c3ccccc3C2(O)N1 (configuration not stated) | 99 | 61*
CN1c2cc(Cl)ccc2-c2nc(SCC(=O)NC3CCCC3)ncc2S1(=O)=O | 103 | 75*
CN1c2cc(Cl)ccc2-c2nc(SCC(N)=O)ncc2S1(=O)=O | 105 | 2
CCN(CC)c1ccc(/C=C/c2cc(=O)cc(C)o2)cc1 | -61* | -59
CCN(CC)c1ccc(/C=C2/SC(=O)NC2=O)cc1 | 182 | -44
O=c1c2ccc(NCCO)c3cccc(c32)c2nc3ccccc3n12 | -52* | x
O=C(O)c1ccc2c3c1cccc3c(=O)n1c3ccccc3nc21 | x | -57
Cc1cc(C)cc(-n2nnc(C(=O)O)c2C)c1 | 99 | -17
O=C(O)CCS(=O)(=O)c1ccc2[nH]c(=O)oc2c1 | 97 | -8
